Where a name gives a salt, the structure may show the parent alone.
Key:
[1] = system: C57BL/6 mice; test: Rotarod performance test (motor coordination); format: in vivo, mouse; conditions: pretreated CN016 + paclitaxel
Method: Three behavioral models of paclitaxel-induced neuropathy were used to verify the neuroprotective effect of CN016. Namely, thermal and mechanical nociceptive reactions described below were evaluated by tail immersion and von Frey filament tests, respectively, and motor coordination was assessed with the rotarod performance test (Supporting Information, Figure S1A,B). To mimic the clinical therapeutic regimen, CN016 (5, 10 and 20 mg/kg) was administrated to 7-week-old female C57BL/6 mice by intraperitoneal injection (IP) 1 h prior to each injection of paclitaxel (4.5 mg/kg) on four alternate days (days 1, 3, 5, and 7). Each test’s basal level was recorded before treatment, and additional sessions of behavior tests were performed weekly for five weeks (Figure 4A).
The baseline of every neurological behavior test was measured in 6-week-old C57BL/6J female mice prior to treatment. […] Mechanical hyperalgesia was evaluated by using von Frey filament (#2390, IITC Inc., USA), thermal sensitivity was determined by the tail immersion assay (water temperature: 48–49 °C), and motor coordination was assessed by rotarod (#7750, Ugo Basile Biological Research Apparatus, Italy). After the first drug implantation, the body weight was recorded every 6 days throughout the entire experiment.

[2] = Pharmacokinetics after intravenous injection; format: in vivo; conditions: male, mouse, plasma, 5 mg/kg IV, ICR mice, mean ± SD (n = 3)
Method: Male ICR mice weighed (29–33 g) were obtained from BioLASCO (Taiwan Co., Ltd., Ilan, Taiwan). The animal studies were performed according to NHRI institutional animal care and committee-approved procedures. Food and water were available ad libitum throughout the experiment. A single 5.0 mg/kg dose of CN016 was dissolved in normal saline and was separately administered to mice intravenously. The groups consisted of three mice for each time point. At times 0.03, 0.08, 0.25, 0.5, 1, 2, 4, 6, 8, 16, and 24 h after dosing, blood was collected from groups of three mice at each time point by cardiac puncture. Plasma was separated from blood and stored in a freezer (−80 °C) before LC/MS/MS analysis. In addition, pharmacokinetic analysis of CN016 following intraperitoneal administration (IP, 5 mg/kg) is provided in Figure S2 (Supporting Information).

[3] = molecular target: T1, CYP 1A2 (Homo sapiens, UniProt P05177); test: Cytochrome P450 testing, CYP 1A2; format: in vitro ADME; conditions: phenacetin O-deethylation; read-out: Concentration of inhibition (IC50), CYP 1A2
T1 construct: host or cells: baculovirus-infected insect cells (supersomes)
Description: (§1) Cytochrome P450 testing of CN016
(§2) The effects of CN016 on the activity of six specific human liver cytochrome P450 isozymes (CYP 1A2, 2C9, 2C19, 2D6, 2E1, 3A4) expressed in baculovirus-infected insect cell supersomes were studied. The reactions used to measure the activity of these enzymes were phenacetin O-deethylation (1A2), diclofenac 4-hydroxylation (2C9), mephenytoin 4-hydroxylation (2C19), dextromethorphan O-demethylation (2D6), chlorzoxazone 6-hydroxylation (2E1) and testosterone 6-hydroxylation (3A4).
(§3) Furafylline, sulfaphenazole, tranylcypromine, quinidine, diethyldithiocarbamate and azamulin were used as reference inhibitors of these enzymes. Incubation mixtures containing no CN016 or reference inhibitors were used as controls. The tested result […]
(§4) Table S4. Result of Cytochrome P450 testing of CN016

[4] = molecular target: T2, CYP 2D6 (Homo sapiens, UniProt P10635); test: Cytochrome P450 testing, CYP 2D6; format: in vitro ADME; conditions: dextromethorphan O-demethylation; read-out: Concentration of inhibition (IC50), CYP 2D6
T2 construct: host or cells: baculovirus-infected insect cells (supersomes)
Description: as §1, §2, §3, §4

[5] = molecular target: T3, CYP 2E1 (Homo sapiens, UniProt P05181); test: Cytochrome P450 testing, CYP 2E1; format: in vitro ADME; conditions: chlorzoxazone 6-hydroxylation; read-out: Concentration of inhibition (IC50), CYP 2E1
T3 construct: host or cells: baculovirus-infected insect cells (supersomes)
Description: as §1, §2, §3, §4

[6] = molecular target: T4, CYP 3A4 (Homo sapiens, UniProt P08684); test: Cytochrome P450 testing, CYP 3A4; format: in vitro ADME; conditions: testosterone 6-hydroxylation; read-out: Concentration of inhibition (IC50), CYP 3A4
T4 construct: host or cells: baculovirus-infected insect cells (supersomes)
Description: as §1, §2, §3, §4

[7] = molecular target: Adenosine A2A (Homo sapiens, UniProt P29274); test: LeadProfilingScreen: Adenosine A2A; format: binding
[8] = molecular target: Adrenergic α1B (Homo sapiens, UniProt P35368); test: LeadProfilingScreen: Adrenergic α1B; format: binding
[9] = molecular target: Adrenergic α2A (Homo sapiens, UniProt P08913); test: LeadProfilingScreen: Adrenergic α2A; format: binding
[10] = molecular target: Bradykinin B1 (Homo sapiens, UniProt P46663); test: LeadProfilingScreen: Bradykinin B1; format: binding
[11] = molecular target: Dopamine D1 (Homo sapiens, UniProt P21728); test: LeadProfilingScreen: Dopamine D1; format: binding
[12] = system: GABAA, Muscimol, Central; test: LeadProfilingScreen: GABAA, Muscimol, Central; format: binding, rat; conditions: 10 μM
[13] = system: Glutamate, Kainate; test: LeadProfilingScreen: Glutamate, Kainate; format: binding, rat; conditions: 10 μM
[14] = molecular target: Histamine H3 (Homo sapiens, UniProt Q9Y5N1); test: LeadProfilingScreen: Histamine H3; format: binding
[15] = molecular target: Muscarinic M2 (Homo sapiens, UniProt P08172); test: LeadProfilingScreen: Muscarinic M2; format: binding
[16] = molecular target: Neuropeptide Y Y1 (Homo sapiens, UniProt P25929); test: LeadProfilingScreen: Neuropeptide Y Y1; format: binding
[17] = molecular target: Opiate δ1 (OP1, DOP) (Homo sapiens, UniProt P41143); test: LeadProfilingScreen: Opiate δ1 (OP1, DOP); format: binding
[18] = system: Purinergic P2X; test: LeadProfilingScreen: Purinergic P2X; format: binding, rat; conditions: 10 μM
[19] = molecular target: Serotonin (5-Hydroxytryptamine) 5-HT3 (Homo sapiens, UniProt P46098); test: LeadProfilingScreen: Serotonin 5-HT3; format: binding
[20] = molecular target: Transporter, Dopamine (DAT) (Homo sapiens, UniProt Q01959); test: LeadProfilingScreen: Transporter, Dopamine (DAT); format: binding
[21] = molecular target: Transporter, GABA (Rattus norvegicus, UniProt P23978); test: LeadProfilingScreen: Transporter, GABA; format: binding
[22] = molecular target: Transporter, Norepinephrine (NET) (Homo sapiens, UniProt P23975); test: LeadProfilingScreen: Transporter, Norepinephrine (NET); format: binding
[23] = molecular target: Transporter, Serotonin (5-Hydroxytryptamine) (SERT) (Homo sapiens, UniProt P31645); test: LeadProfilingScreen: Transporter, Serotonin (SERT); format: binding

**Q.** Which results are given for `O=P(O)(O)CCN1CCC(Nc2cc(N3CCOCC3)nc(NCc3cn(CCCO)nn3)n2)CC1` [CN016, {2-[4-(2-{[1-(3-Hydroxy-propyl)-1H-[1,2,3]triazol-4-ylmethyl]-amino}-6-morpholin-4-yl-pyrimidin-4-ylamino)-piperidin-1-yl]-ethyl}-phosphonic Acid Hydrobromide Salt]?
**A.** motor coordination (rotarod test) [1]: neither paclitaxel treatment nor pretreated CN016 affected motor coordination; AUC(0-t) at 24 h [2]: 6980 ± 1850 ng·h/mL; clearance at 24 h [2]: 12.8 ± 2.9 mL/min/kg; half-life at 24 h [2]: 12.8 ± 3.4 h; Vd at 24 h ([2]; read-out: Vss): 0.8 ± 0.5 L/kg; IC50 [3]: > 100 µM; IC50 [4]: > 100 µM; IC50 [5]: > 100 µM; IC50 [6]: > 100 µM; inhibition at 10 µM [7]: 5%; inhibition at 10 µM [8]: 14%; inhibition at 10 µM [9]: -4%; inhibition at 10 µM [10]: -10%; inhibition at 10 µM [11]: -2%; Inhibition (%), GABAA, Muscimol, Central [12]: 5%; Inhibition (%), Glutamate, Kainate [13]: 0%; inhibition at 10 µM [14]: 2%; inhibition at 10 µM [15]: -1%; inhibition at 10 µM [16]: -4%; inhibition at 10 µM [17]: 6%; Inhibition (%), Purinergic P2X [18]: -9%; inhibition at 10 µM [19]: -1%; inhibition at 10 µM [20]: 0%; inhibition at 10 µM [21]: 2%; inhibition at 10 µM [22]: -1%; inhibition at 10 µM [23]: -4%

From paper PMC8958505, “Discovery of Potential Neuroprotective Agents against Paclitaxel-Induced Peripheral Neuropathy” (Journal of Medicinal Chemistry, 2022)
